The results in this text go back to paper PMC12396409, “Screening and hit evaluation of a microbial metabolite library against the pathogenic Plasmodium falciparum and Toxoplasma gondii parasites” (International Journal for Parasitology: Drugs and Drug …, 2025).

Each structure is given as a SMILES string.

A short description of the data set: in vitro. Conditions: human.

Compound `COc1ccc2c3c(c4cc(OC)c(OC)cc4c2c1)C[C@H]1CCCCN1C3` [Cryptopleurine] came in with an IC50 of 27 nM.
